Measurements reported in US20050186292A1, “Antimicrobial agent” (Japan Bio Science Laboratory Co., Ltd., priority 2004, published 2005).

System: Helicobacter pylori NCTC11637
Test: Disk diffusion: diameter of inhibition circle on Brain Heart Infusion blood agar
Format: cell-based
Details: 30 μg per disk, 72 hours
Description: The antimicrobial activity against Helicobacter pylori was examined using the obtained Angelica keiskei sap and the Angelica keiskei sap preparation. Angelica keiskei sap (a), (b) a five-fold dilution of Angelica keiskei sap (a) (dilution with sterilized water), (c) a suspension in which the Angelica keiskei sap preparation was suspended in a concentration of 200 mg/ml in a sterilized water, and (d) a five-fold dilution of the suspension (c) (the concentration of the Angelica keiskei sap preparation: 40 mg/ml) were prepared, and 50 μl of each of them was spotted in a sterilized disk having a diameter of 6.35 mm, and dried at 37° C. to obtain sample disks. Each sample disk was placed onto a Brain Heart Infusion blood agar medium containing 5% horse defibrinated blood to which Helicobacter pylori NCTC11637 was inoculated, and was cultured under microaerophilic conditions at 37° C. for 72 hours, and then the diameter of an inhibition circle appeared in the agar medium was measured. Two disks per sample were used. As a positive control (e), a sterilized disk containing cephalothin (30 μg) was used, and as a negative control (f), those containing nalidixic acid (30 μg) was used (both manufactured by EIKEN CHEMICAL CO., LTD.).
The composition of the Brain Heart Infusion blood agar medium (OXOID Ltd.) was obtained by adding horse defibrinated blood to the medium shown in Table 2 below so that the final concentration was 5 w/v %.
The Brain Heart Infusion blood agar medium was prepared by first sterilizing the agar medium shown in Table 2, cooling to about 50° C., and then adding horse defibrinated blood so that the final concentration was 5 w/v %.

| Structure (SMILES) | Diameter of Inhibition circle (disk 1) | Diameter of Inhibition circle (disk 2) |
| --- | --- | --- |
| CCn1cc(C(=O)O)c(=O)c2ccc(C)nc21 [Nalidixic acid, nalidixic acid] | 0 mm | 0 mm |
| CC(=O)OCC1=C(C(=O)O)N2C(=O)[C@@H](NC(=O)Cc3cccs3)[C@H]2SC1 [Cephalothin, cephalothin] | 44 mm | 46 mm |
